Patent publication US20090181953A1, “COMPOUND FORMS AND USES THEREOF” (WYETH, priority 2008, published 2009)

Experiment: hygroscopicity, Dynamic Vapor Sorption (DVS)
Type: physicochemical
Procedure: Salt forms of a compound of formula 1 were investigated with X-ray powder diffraction, DSC, TGA and microscopy. FIG. 1 illustrates X-ray patterns observed for various salt forms. FIGS. 2 and 3 present results of thermal studies performed on such salt forms. FIGS. 4 and 5 present DVS data of sulfuric and phosphoric salts. […] FIGS. 6-12 show characterization data for hydrochloride salt forms.
Dynamic Vapor Sorption (DVS) was done at 25-26° C.

## Phosphoric acid
  Hygroscopicity (in words): non-hygroscopic
  water held at 50% RH: holds about 2%
Listed as phosphate salt form
  water held at 50% RH: about 2%
Listed as phosphoric salt form
  water held at 50% RH: about 2%
Relative humidity
  RH at which moisture pick-up starts: Starts at 10% and
